Paper PMC5997364, “OG716: Designing a fit-for-purpose lantibiotic for the treatment of Clostridium difficile infections” (PLoS ONE, 2018)

Conditions: 1.0 mg/mL in water
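Note: purity and concentration determined by HPLC on aqueous solutions kept in a stability chamber, with samples analyzed at day 0 and after incubation.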

SMILES | Forced degradation Δ Purity (7 Days at +50°C) | Forced degradation Δ Conc (2 Days at +50°C)
C=C1NC(=O)[C@H](Cc2c[nH]c3ccccc23)NC(=O)[C@H](NC(=O)[C@H](CCCCN)NC(=O)[C@@H](N)CC(C)C)CSC[C@@H](C(=O)N[C@H]2C(=O)N3CCC[C@H]3C(=O)NCC(=O)N[C@H](C(=O)N[C@@H](C)C(=O)N[C@@H](CC(N)=O)C(=O)N/C(=C\C)C(=O)NCC(=O)N[C@@H]3CSC[C@@H]4NC(=O)[C@H](Cc5ccc(O)cc5)NC(=O)[C@@H](CS/C=C\NC4=O)NC(=O)[C@H](CC(N)=O)NC(=O)[C@H](Cc4ccccc4)NC3=O)CS[C@H]2C)NC(=O)[C@H](CC(C)C)NC1=O [OG712] | -18.06% | 
C=C1NC(=O)[C@H](Cc2c[nH]c3ccccc23)NC(=O)[C@H](NC(=O)[C@H](CCCCN)NC(=O)[C@@H](N)CC(C)C)CSC[C@@H](C(=O)N[C@H]2C(=O)N3CCC[C@H]3C(=O)NCC(=O)N[C@H](C(=O)N[C@@H](C)C(=O)N[C@@H](CC(=O)O)C(=O)N/C(=C\C)C(=O)NCC(=O)N[C@@H]3CSC[C@@H]4NC(=O)[C@H](Cc5ccc(O)cc5)NC(=O)[C@@H](CS/C=C\NC4=O)NC(=O)[C@H](CC(N)=O)NC(=O)[C@H](Cc4ccccc4)NC3=O)CS[C@H]2C)NC(=O)[C@H](CC(C)C)NC1=O [OG705] |  | -11.2%
